Laboratory results: paper PMC8585037 (International Journal of Molecular Sciences, 2021)

Test system: DA, 3-MT, DOPAC, 5-HT and 5-HIAA in dorsal striatum and nucleus accumbens
Assay: Neurotransmitter and metabolite concentrations in post-mortem mouse brain tissue
Format: in vivo
[1] = Dorsal Striatum, 20 min after 3.75 mg/kg i.p.
[2] = Dorsal Striatum, 20 min after 12.5 mg/kg i.p.
[3] = Nucleus Accumbens, 20 min after 3.75 mg/kg i.p.
[4] = Nucleus Accumbens, 20 min after 12.5 mg/kg i.p.

CN[C@@H](C)Cc1ccccc1 [methamphetamine]
5-HIAA concentration [1]: 4.4 ± 0.6 nmol/g
DOPAC concentration [1]: 22.0 ± 3.2 nmol/g
5-HIAA concentration [2]: 4.3 ± 0.6 nmol/g
DOPAC concentration [2]: 12.1 ± 2.6 nmol/g
5-HIAA concentration [3]: 10.6 ± 1.4 nmol/g
DOPAC concentration [3]: 28.8 ± 2.6 nmol/g
5-HIAA concentration [4]: 8.4 ± 1.9 nmol/g
DOPAC concentration [4]: 12.5 ± 2.7 nmol/g
DOPAC concentration, % of control (dorsal striatum, 3.75 mg/kg i.p., vs saline): 53 % of control
DOPAC concentration, % of control (dorsal striatum, 12.5 mg/kg i.p., vs saline): 29 % of control
3-MT concentration, % of control (dorsal striatum, 12.5 mg/kg i.p., vs saline (tendency)): 153 % of control
3-MT concentration, % of control (nucleus accumbens, 3.75 mg/kg i.p., vs saline): 369 % of control
